## Binding of CDR-mutated scFvs to a peptide of the spike HR2 region

Target peptide (SARS-CoV-2 spike, HR2 region): PDVDLGDISGINAS

Ab-91 is the parent antibody, in scFv form: VL, then three GGGGS repeats, then VH. The light chain is unchanged in all variants.
VL: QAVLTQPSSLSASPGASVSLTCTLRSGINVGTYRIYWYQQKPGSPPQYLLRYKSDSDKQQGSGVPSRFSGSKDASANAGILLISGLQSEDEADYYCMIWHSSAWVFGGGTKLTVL
VH: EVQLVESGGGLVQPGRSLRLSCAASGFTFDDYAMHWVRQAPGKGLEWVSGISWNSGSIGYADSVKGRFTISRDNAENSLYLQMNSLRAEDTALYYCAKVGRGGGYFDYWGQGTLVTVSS

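Phage display of a naive human antibody library on the peptide gave the parent. In library AAYL51, one, two or three CDR residues were substituted; doubles and triples were drawn at random. In AlphaSeq, yeast of one mating type display the scFv and yeast of the other type display the target. Binding brings cells together so that they mate, and sequencing counts the barcode pairs among the diploids. The ratio of observed to expected reads was calibrated, replicate by replicate, on BCL2-family standards whose Kd was known from biolayer interferometry. Each pool was mated in three replicate cultures.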

Positions count from residue 1 of the parent VH; G104K puts K in place of G. Affinities are written as log10 Kd with Kd in nM; a lower number is a better binder. A mean of the replicates is given; it leaves out those without a signal. Where no diploid with the target was found in that replicate, the entry reads "nd": below detection, most likely a poor binder, though not proof of it. Nonspecific signal, from three strains lacking the peptide, appeared in 21% of pairings of library AAYL51, centred on 4.54 (5% of these signals below 3.26); values are not corrected for it. The control count says in how many pairings with the empty strains this scFv gave a signal, with their mean in brackets.

| # | changes | log10 Kd, replicates | mean, log10 nM | signal with controls |
|---|---|---|---|---|
| 1 | G104K/Y108E | nd 6.03 4.83 | 5.43 | 2/9 (4.15) |
| 2 | W53Y/V64A/K65C | nd nd nd | nd | 0/9 |
| 3 | G50F/I51Y/I58D | 4.72 3.56 nd | 4.14 | 5/9 (3.95) |
| 4 | F27S/W53R/K65H | 5.39 5.49 nd | 5.44 | 2/9 (4.58) |
| 5 | I51H/A61R/G100R | 4.44 nd 3.85 | 4.14 | 6/9 (4.88) |
| 6 | D31T/K65Q/F106Y | 2.35 2.66 2.49 | 2.50 | 1/9 (5.15) |
| 7 | F27E | 1.36 1.94 1.56 | 1.62 | 4/9 (4.26) |
| 8 | I51L/G102Y | nd nd nd | nd | 0/9 |
| 9 | H35R/G56K/I58K | nd nd nd | nd | 0/9 |
| 10 | F29P/I58S/G100W | nd nd nd | nd | 0/9 |
| 11 | A33Q/G50I/D62Y | nd nd nd | nd | 0/9 |
| 12 | Y32D/G50R/Y108D | nd nd nd | nd | 0/9 |
| 13 | G26P/G50W/I58L | nd nd nd | nd | 1/9 (4.43) |
| 14 | S63G/V99E | 1.21 1.34 0.65 | 1.07 | 0/9 |
| 15 | F27V/D31W/G56I | nd nd nd | nd | 0/9 |
| 16 | D30N/D62P/Y105L | 6.31 6.04 5.35 | 5.90 | 2/9 (4.60) |
| 17 | D62H/F106P/D107M | nd nd nd | nd | 0/9 |
| 18 | S52M/G104I/F106R | nd nd nd | nd | 1/9 (4.25) |
| 19 | M34P/H35M | 5.32 nd 5.42 | 5.37 | 5/9 (4.70) |
| 20 | S55R | 2.93 2.98 4.37 | 3.43 | 2/9 (3.43) |
| 21 | F27I/F29G/G100W | nd 5.91 nd | 5.91 | 3/9 (3.77) |
| 22 | W53A/N54R/D62M | 1.16 1.04 0.52 | 0.91 | 0/9 |
| 23 | N54D/S63C/Y108F | 4.68 5.08 4.64 | 4.80 | 5/9 (4.81) |
| 24 | S52V/I58Y/G59K | 3.74 nd nd | 3.74 | 0/9 |
| 25 | G26A/V99K/G104P | nd nd nd | nd | 0/9 |
| 26 | G50F/N54Q/V64R | nd nd nd | nd | 1/9 (2.19) |
| 27 | A33T/S57N/Y108S | nd nd 5.00 | 5.00 | 2/9 (4.32) |
| 28 | K65G/V99G/Y105W | nd nd 4.83 | 4.83 | 1/9 (4.91) |
| 29 | A33S/N54M/F106L | 4.36 4.79 4.49 | 4.55 | 5/9 (5.01) |
| 30 | D30H/I51T/Y105E | nd nd nd | nd | 1/9 (2.83) |
| 31 | F27D/H35E/A61Y | 3.91 nd nd | 3.91 | 0/9 |
| 32 | I51Y/Y60G | nd nd nd | nd | 0/9 |
| 33 | H35R/S55P/Y108W | nd 3.29 3.19 | 3.24 | 0/9 |
| 34 | A61L/V99C/Y105T | 2.87 3.12 3.99 | 3.33 | 4/9 (4.17) |
| 35 | S57P/S63K/V99W | nd nd 4.52 | 4.52 | 2/9 (4.40) |
| 36 | G26W/W53Y/Y105Q | 4.49 6.52 nd | 5.51 | 4/9 (4.70) |
| 37 | Y32K/G103A/F106H | nd nd nd | nd | 1/9 (3.37) |
| 38 | W53M/R101H | 0.39 0.27 -0.26 | 0.13 | 2/9 (3.29) |
| 39 | S52I/S57D/I58C | 4.89 nd nd | 4.89 | 4/9 (5.02) |
| 40 | D30K/K65H/D107I | 4.82 5.00 6.11 | 5.31 | 5/9 (5.19) |
| 41 | A33W/I51L/I58V | 4.20 5.29 4.84 | 4.78 | 3/9 (3.89) |
| 42 | S57Q/G59E/V99C | 6.17 nd nd | 6.17 | 5/9 (4.37) |
| 43 | F27L/S52K/G100D | 4.75 5.96 5.42 | 5.38 | 7/9 (5.32) |
| 44 | S57D/G100H | nd nd nd | nd | 1/9 (4.25) |
| 45 | F27W/S63F/G104L | nd nd nd | nd | 2/9 (4.81) |
| 46 | S63A/V99A/R101H | nd nd nd | nd | 0/9 |
| 47 | F29V/M34V/I58M | nd 5.45 nd | 5.45 | 4/9 (4.52) |
| 48 | F29A/H35Y/N54E | 4.67 nd nd | 4.67 | 1/9 (2.66) |
| 49 | M34P/I58Q/G100Y | 4.29 4.10 4.71 | 4.37 | 1/9 (3.08) |
| 50 | D31T/K65W/G104C | nd nd nd | nd | 0/9 |

Extract of 7 entries:

| changes | log10 Kd, replicates | mean, log10 nM | signal with controls |
|---|---|---|---|
| F27W/S63F/G104L | nd nd nd | nd | 2/9 (4.81) |
| G26P/G50W/I58L | nd nd nd | nd | 1/9 (4.43) |
| D30H/I51T/Y105E | nd nd nd | nd | 1/9 (2.83) |
| Y32D/G50R/Y108D | nd nd nd | nd | 0/9 |
| K65G/V99G/Y105W | nd nd 4.83 | 4.83 | 1/9 (4.91) |
| I51H/A61R/G100R | 4.44 nd 3.85 | 4.14 | 6/9 (4.88) |
| S52M/G104I/F106R | nd nd nd | nd | 1/9 (4.25) |

In this assay the parent's reference entry averaged 1.86; its copy inside this library read 0.88.

Values reported by Engelhart et al. 2022, doi:10.1038/s41597-022-01779-4 (FLAb copy).